Data as given in PubChem BioAssay AID493087 (The Scripps Research Institute Molecular Screening Center, 2011).
The entries are a selection whose mix differs from that of the whole data set. Calls of active or inactive are those of the source.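 Rule for the calls: active = activation above the mean of all tested compounds plus 3 SD, set per screening campaign (cut at about 17% in these data); inactive = the rest.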

The chains behind the UniProt entries cited, without tags or fusion partners.
UniProt P14735, whole entry: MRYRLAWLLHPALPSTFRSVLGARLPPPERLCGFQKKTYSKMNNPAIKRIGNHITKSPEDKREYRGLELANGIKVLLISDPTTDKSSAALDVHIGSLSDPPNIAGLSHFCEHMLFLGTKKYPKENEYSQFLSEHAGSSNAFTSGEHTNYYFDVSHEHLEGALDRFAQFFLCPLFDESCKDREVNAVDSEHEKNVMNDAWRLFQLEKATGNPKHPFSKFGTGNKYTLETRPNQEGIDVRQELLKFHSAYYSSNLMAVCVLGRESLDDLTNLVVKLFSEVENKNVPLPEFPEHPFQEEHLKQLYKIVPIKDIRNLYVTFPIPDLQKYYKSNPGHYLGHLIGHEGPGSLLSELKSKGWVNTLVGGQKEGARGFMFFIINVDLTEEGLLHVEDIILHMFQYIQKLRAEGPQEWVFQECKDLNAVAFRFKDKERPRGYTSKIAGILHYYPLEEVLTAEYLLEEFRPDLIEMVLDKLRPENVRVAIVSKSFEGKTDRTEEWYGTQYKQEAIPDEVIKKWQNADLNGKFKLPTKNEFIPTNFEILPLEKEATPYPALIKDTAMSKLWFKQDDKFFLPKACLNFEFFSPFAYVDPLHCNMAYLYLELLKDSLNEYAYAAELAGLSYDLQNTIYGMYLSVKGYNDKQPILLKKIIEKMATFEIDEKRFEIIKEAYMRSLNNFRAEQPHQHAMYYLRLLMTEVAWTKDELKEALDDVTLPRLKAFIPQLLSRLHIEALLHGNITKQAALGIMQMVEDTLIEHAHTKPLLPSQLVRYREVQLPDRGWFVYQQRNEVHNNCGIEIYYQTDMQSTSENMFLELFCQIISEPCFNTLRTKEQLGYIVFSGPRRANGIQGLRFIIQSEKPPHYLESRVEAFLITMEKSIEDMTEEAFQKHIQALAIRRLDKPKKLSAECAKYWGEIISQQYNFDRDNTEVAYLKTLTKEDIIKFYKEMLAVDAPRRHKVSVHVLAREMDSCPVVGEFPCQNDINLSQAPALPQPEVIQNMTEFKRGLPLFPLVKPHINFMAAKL

These compounds were tested against Insulin-degrading enzyme (Homo sapiens) (UniProt P14735) (assay: enhanced cellular IDE Abeta cleavage – fluorescence polarization, HEK cells, FAbeta-B substrate, primary screen (AID 493087)). Conditions: at 5.96 µM, active compounds read high, 0% vehicle, 100% cell-free pure enzyme wells.

SMILES	activation
CCCOc1ccc(C(=O)NCC2(N(C)C)CCCCC2)cc1OC	inactive: 4.43%
CN1CCC(Nc2cccc(F)c2)CC1	inactive: 1.73%
O=C(NCC1(N2CCCCC2)CCCCC1)c1cncc(Br)c1	inactive: 2.03%
COc1cc(OC)c(C(=O)NCC2(N(C)C)CCCCC2)cc1OC	inactive: 2.46%
O=C(NCC1(N2CCOCC2)CCCCC1)c1cc(F)c(F)cc1Cl	inactive: 3.99%
CC(C)c1ccc(NC2CCN(C(=O)OC(C)(C)C)CC2)cc1	inactive: 5.75%
COc1ccc(CN(CCCl)CCCl)cc1Cl	inactive: 4.54%
CN(C)c1cccc(C(=O)NCC2(N3CCCCC3)CCCCC2)c1	inactive: 3.36%
O=C(NCC1(N2CCOCC2)CCCCC1)c1cc(=O)[nH]c2ccccc12	inactive: -0.38%
COc1cc(C(=O)NCC2(N3CCCCC3)CCCCC2)ccc1OC(F)F	inactive: -5.69%
COc1ccc(NC2CCN(C(=O)OC(C)(C)C)CC2)cc1	inactive: -0.49%
CC(C)c1ccc(C(=O)NCC2(N3CCOCC3)CCCCC2)cc1	inactive: 5.5%
CN1CCN(CCOC(=O)C(O)(c2ccccc2)c2ccccc2)CC1	inactive: 3.41%
O=C(NCC1(N2CCCCC2)CCCCC1)c1cccc(C(F)(F)F)c1	inactive: 4.62%
CCN1CCC(Nc2ccc(Cl)cc2)CC1	inactive: 1.78%
N#CC1(Nc2ccccc2)CCN(CCc2ccccc2)CC1	inactive: -1.49%
O=C(NCC1(N2CCCCC2)CCCCC1)c1cccc([N+](=O)[O-])c1	inactive: -2.62%
CSc1ccc(C(=O)NCC2(N3CCOCC3)CCCCC2)cc1	inactive: 5.69%
O=C(NCC1(N2CCCCC2)CCCCC1)c1ccc(OC(F)F)cc1	inactive: 1.11%
CCOC(=O)N1CCC(Nc2cccc(C)c2)CC1	inactive: 0.91%
COc1cc(C(=O)NCC2(N(C)C)CCCCC2)ccc1OC(F)F	inactive: 4.68%
CCCCOc1ccc(C(=O)NCC2(N3CCOCC3)CCCCC2)cc1	inactive: 3.35%
O=P1(N(CCCl)CCCl)SCCCS1	inactive: -2.38%
O=C(NCC1(N2CCCCC2)CCCCC1)c1ccc(F)cc1	inactive: 5.8%
CCOC(=O)N1CCC(Nc2ccc(F)cc2)CC1	inactive: 1.66%

SMILES	activation
COc1ccc(NC2CCN(CCc3ccccc3)CC2)c(OC)c1	inactive: 11.3%
O=C1CCN(Cc2ccccc2)CC1	inactive: 2.67%
CCOc1ccc(C)cc1CN(CCCl)CCCl	inactive: -6.91%
O=C(NCC1(N2CCCCC2)CCCCC1)c1ccc(Cl)s1	inactive: 0.75%
N#CC1(Nc2ccccc2)CCN(Cc2ccccc2)CC1	inactive: 1.53%
O=C(OC1CN2CCC1CC2)C1c2ccccc2Oc2ccccc21 (centres undefined)	inactive: 1.67%
COc1ccc(Cl)cc1C(=O)NCC1(N2CCOCC2)CCCCC1	inactive: -0.78%
CCOC(=O)N1CCC(Nc2ccc(OC)cc2)CC1	inactive: 2.68%
O=C(NCC1(N2CCCCC2)CCCCC1)c1ccc(Cl)nc1	inactive: -2.61%
Cc1cc(C)cc(N(C(=O)c2ccccc2)C2CCN(C(=O)OC(C)(C)C)CC2)c1	inactive: -4.65%
O=C(NCC1(N2CCOCC2)CCCCC1)c1cc2ccccc2o1	inactive: -0.11%
CSc1ccccc1C(=O)NCC1(N2CCCCC2)CCCCC1	inactive: 4.13%
Cc1cccc(NC2(C#N)CCN(Cc3ccccc3)CC2)c1	inactive: 4.83%
COc1ccc(C(=O)NCC2(N3CCCCC3)CCCCC2)cc1	inactive: -0.09%
COc1ccc(C(=O)NCC2(N3CCCCC3)CCCCC2)c(OC)c1OC	inactive: 2.07%
CC(C)(C)OC(=O)N1CCC(N(C(=O)c2ccccc2)c2ccc(F)cc2)CC1	inactive: 0.34%
O=C(NCC1(N2CCCCC2)CCCCC1)c1ccc(=O)[nH]c1	inactive: -5.07%
O=C(NCC1(N2CCCCC2)CCCCC1)c1cccs1	inactive: 4.39%
CN1CCC(Nc2ccc(Cl)cc2)CC1	inactive: 1.51%
COc1cccc(C(=O)N(c2cc(C)cc(C)c2)C2CCN(C(=O)OC(C)(C)C)CC2)c1	inactive: -0.42%
COc1cc(OC)cc(C(=O)NCC2(N3CCOCC3)CCCCC2)c1	inactive: 0.98%
CCC(CO)(C(=O)OC1CN2CCC1CC2)c1ccccc1 (centres undefined)	inactive: 4.91%
CC(C)(C)OC(=O)N1CCC(Nc2ccccc2)CC1	inactive: 1.38%
O=C(O)C1(Nc2ccccc2)CCN(Cc2ccccc2)CC1	inactive: 0.63%
CCCOc1ccc(C(=O)NCC2(N(C)C)CCCCC2)cc1	inactive: 2.58%

SMILES	activation
CCOc1ncccc1C(=O)NCC1(N2CCOCC2)CCCCC1	inactive: 2.36%
CN1CCC(Nc2ccc(F)c(Cl)c2)CC1	inactive: -6.09%
O=C(NCC1(N2CCCCC2)CCCCC1)c1ccco1	inactive: -1.02%
CN(C)c1ccc(C(=O)NCC2(N3CCCCC3)CCCCC2)cc1	inactive: 1.86%
Cn1c(=O)[nH]cc(N(CCCl)CCCl)c1=O	inactive: 2.16%
Cc1ccccc1NC1(C#N)CCN(Cc2ccccc2)CC1	inactive: 2.73%
CCN1CCC(Nc2cccc(F)c2)CC1	inactive: -5.45%
Cc1ccc(C(=O)NCC2(N3CCCCC3)CCCCC2)o1	inactive: 3.3%
Fc1ccccc1NC1CCN(Cc2ccccc2)CC1	inactive: -2.67%
Cc1ccc(NC2(C#N)CCN(Cc3ccccc3)CC2)cc1	inactive: 5.52%
CC(=O)N(c1ccccc1)C1CCNCC1	inactive: 2.47%
COc1cc(OC)cc(C(=O)NCC2(N3CCCCC3)CCCCC2)c1	inactive: 3.31%
CN(C)C1(CNC(=O)c2cccc(C#N)c2)CCCCC1	inactive: 4.39%
c1ccc(CN2CCC(Nc3ccccc3)CC2)cc1	inactive: 1.97%
CCCN1CCC(Nc2cc(OC)cc(OC)c2)CC1	inactive: 10.1%
Cc1cc(N(CCCl)CCCl)ccc1C=O	inactive: 1.85%
N#Cc1ccc(C(=O)NCC2(N3CCCCC3)CCCCC2)cc1	inactive: 3.64%
CC(C)(C)OC(=O)N1CCC(N(C(=O)c2ccccc2)c2ccc(Cl)cc2)CC1	inactive: 0.43%
O=C(OC1CN2CCC1CC2)C1c2ccccc2C=Cc2ccccc21 (centres undefined)	inactive: -3.24%
CCOC(=O)N1CCC(Nc2ccc(C)cc2)CC1	inactive: 7.04%
N/C(=N\O)c1c(N)no[n+]1[O-]	inactive: 0.26%
COc1ccc(C(=O)NCC2(N3CCOCC3)CCCCC2)cc1OC	inactive: 2.69%
COc1cc(C(=O)NCC2(N3CCOCC3)CCCCC2)cc(OC)c1C	inactive: 1.07%
O=C(NCC1(N2CCOCC2)CCCCC1)c1cc(Br)ccc1Cl	inactive: 2.89%
